Assay results taken from patent US9321756B2, “Azole compounds as PIM inhibitors” (priority 2011, dated 2016).
Read-outs that look alike come from different tables or passages of the source.

Legend:
[1] = tested on: Pim-2 stably transfected U2OS human osteogenic sarcoma line; test: Pim cell assay U2OS (phospho-BAD normalized against total BAD), Pim-2 transfected; assay type: cell-based; conditions: read-out: U2OS Pim2_Cell_IC50
[2] = target: full length recombinant Pim-3 (Homo sapiens (Human), UniProt Q86V86); test: Pim enzyme assay (HTRF, phosphorylation of biotinylated-BAD (S112) peptide), Pim-3; assay type: biochemical; conditions: read-out: Pim3 IC50

Row | SMILES | IC50 [1] [µM] | IC50 ([2]; Pim-3 enzyme assay) [µM] | IC50 [2] [µM]
1 | CN1CCN(c2cccc(-c3c[nH]c4ccc(-c5nnc(N)s5)cc34)n2)CC1=O [Example 30, 4-(6-(5-(5-amino-1,3,4-thiadiazol-2-yl)-1H-indol-3-yl)pyridin-2-yl)-1-methylpiperazin-2-one] | 5.06 | – | –
2 | Nc1nnc(-c2ccc3[nH]cc(-c4cccc(N5CCCC5)n4)c3c2)s1 [Example 176, 5-(3-(6-(1-pyrrolidinyl)-2-pyridinyl)-1H-indol-5-yl)-1,3,4-thiadiazol-2-amine] | – | 0.0145 | –
3 | Nc1nnc(-c2ccc3[nH]cc(-c4cccc(N5CCCC5)n4)c3c2)s1 [Example 14, 5-(3-(6-(pyrrolidin-1-yl)pyridin-2-yl)-1H-indol-5-yl)-1,3,4-thiadiazol-2-amine] | 12.1 | – | 0.00891
4 | Nc1nnc(-c2ccc3[nH]cc(-c4cncc(NC5CC5)n4)c3c2)s1 [Example 15, 5-(3-(6-(cyclopropylamino)pyrazin-2-yl)-1H-indol-5-yl)-1,3,4-thiadiazol-2-amine] | 2.04 | – | 0.00339
